# Values quoted from earlier work, collected in patent publication US20240082360A1, “METHODS TO TREAT HEPATITIS DELTA VIRAL INFECTIONS” (Eiger Biopharmaceuticals, Inc., priority 2019, published 2024).
# System: HDV
# Details: 24 weeks after the end of treatment; assay LOD 120 copies/mL of serum; cited from earlier work
substance,measurement,value
peginterferon alfa-2a: peginterferon alfa-2a therapy used in the HIDIT-1 and -2 studies,subjects who achieved undetectable HDV RNA,23-31%
